# Target: P-glycoprotein (P-gp) (Homo sapiens, UniProt P08183)
# By UniProt entry, the sequences of proteins in these tests, tags left out.
# UniProt P08183, whole entry: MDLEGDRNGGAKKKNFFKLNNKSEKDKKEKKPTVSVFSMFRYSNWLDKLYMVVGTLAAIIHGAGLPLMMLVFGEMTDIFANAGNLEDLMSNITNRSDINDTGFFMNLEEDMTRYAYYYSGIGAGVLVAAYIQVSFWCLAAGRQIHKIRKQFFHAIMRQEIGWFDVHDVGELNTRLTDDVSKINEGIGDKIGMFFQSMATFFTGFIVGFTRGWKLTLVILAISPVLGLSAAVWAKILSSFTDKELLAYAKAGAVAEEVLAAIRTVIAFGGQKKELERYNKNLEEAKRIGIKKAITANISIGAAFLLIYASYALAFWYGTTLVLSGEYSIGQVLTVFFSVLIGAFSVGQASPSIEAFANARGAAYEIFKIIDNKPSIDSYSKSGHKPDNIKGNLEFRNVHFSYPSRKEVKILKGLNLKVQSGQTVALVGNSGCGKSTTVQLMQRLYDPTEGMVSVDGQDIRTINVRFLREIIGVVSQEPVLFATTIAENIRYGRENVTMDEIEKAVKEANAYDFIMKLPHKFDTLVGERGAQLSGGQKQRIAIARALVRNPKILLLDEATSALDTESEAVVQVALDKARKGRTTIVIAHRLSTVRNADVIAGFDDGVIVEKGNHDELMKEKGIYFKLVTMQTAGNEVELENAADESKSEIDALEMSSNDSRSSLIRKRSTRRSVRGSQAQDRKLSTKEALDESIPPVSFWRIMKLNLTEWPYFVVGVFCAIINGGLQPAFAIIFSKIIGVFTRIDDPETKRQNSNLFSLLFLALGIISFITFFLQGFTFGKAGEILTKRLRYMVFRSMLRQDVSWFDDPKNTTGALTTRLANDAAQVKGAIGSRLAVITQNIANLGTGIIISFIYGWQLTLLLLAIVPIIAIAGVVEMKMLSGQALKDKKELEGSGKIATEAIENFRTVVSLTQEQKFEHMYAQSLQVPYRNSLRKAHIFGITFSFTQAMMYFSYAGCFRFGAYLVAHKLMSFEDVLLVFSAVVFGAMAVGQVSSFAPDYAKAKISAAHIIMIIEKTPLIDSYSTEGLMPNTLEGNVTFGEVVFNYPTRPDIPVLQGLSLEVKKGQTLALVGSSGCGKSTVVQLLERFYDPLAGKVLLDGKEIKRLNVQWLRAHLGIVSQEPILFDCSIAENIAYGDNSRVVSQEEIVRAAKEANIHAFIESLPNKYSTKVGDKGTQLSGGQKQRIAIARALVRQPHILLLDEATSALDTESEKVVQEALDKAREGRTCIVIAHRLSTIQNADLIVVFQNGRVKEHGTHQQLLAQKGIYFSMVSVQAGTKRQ
# Experiment: Scintillation proximity assay (SPA): competition with [3H]vinblastine binding to P-gp in KB-V1 cell membranes
# Settings: test compound 10 μM final concentration; FIG. 8; mean of triplicates
substance,measurement,value
Ivermectin,effect of test compound on P-gp specific binding signal,strongly inhibited
